Antibody variant affinities, Ab-95 light chain, assay 2

Values reported by Engelhart et al. 2022, doi:10.1038/s41597-022-01779-4 (FLAb copy).

Binding partner: SARS-CoV-2 spike HR2 peptide, sequence PDVDLGDISGINAS.

Ab-95 is the parent antibody, in scFv form: VH, then a (GGGGS)3 linker, then VL. The heavy chain is unchanged in all variants.
VH: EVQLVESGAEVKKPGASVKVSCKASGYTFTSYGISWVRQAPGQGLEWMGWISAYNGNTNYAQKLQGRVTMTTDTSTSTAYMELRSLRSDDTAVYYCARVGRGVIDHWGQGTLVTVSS
VL: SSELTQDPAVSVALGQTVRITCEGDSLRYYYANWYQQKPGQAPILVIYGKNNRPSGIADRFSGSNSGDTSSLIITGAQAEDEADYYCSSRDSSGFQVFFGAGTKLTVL

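Phage display of a naive human antibody library on the peptide gave the parent. In library AAYL52, one, two or three CDR residues were substituted; doubles and triples were drawn at random. AlphaSeq pools MATa yeast showing the antibodies with MATalpha yeast showing the peptide. The frequency of each diploid, read from paired DNA barcodes, reflects how well the two displayed proteins bind. A regression on co-assayed BCL2-family reference pairs converts the normalised counts of each replicate to an apparent Kd. Mating was done three times.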

Each variant is given by its three light chain CDRs, as the data file delimits them; those of the parent are EGDSLRYYYAN, GKNNRPS, SSRDSSGFQVF. All variants listed here change Y31 of the VL, counted from its first residue. Each Kd is an estimate from the mating assay, the geometric mean of the replicates in which the pair was seen; lower is stronger. Where no diploid with the target was found in any replicate, the entry reads "no signal": below detection, most likely a poor binder, though not proof of it. Three control strains display no target. For library AAYL52, 28% of the pairings with them gave a signal, with a median of 8.2 µM and one signal in twenty below 800 nM, so weak values seen in few replicates may be background. For each scFv, signals with the empty controls are counted beside the result. In this assay the parent's reference entry averaged 200 nM; its copy inside this library read 180 nM.

The variant EGDSLRYYTAN | GKNNRPS | SSRDSSQFQVF gave 55 µM (2 of 3 replicates; controls 0 of 9). The variant EGDSLRVYCAN | GKNNRPS | SSRDSSGCQVF showed 1.8 µM (1 of 3 replicates; controls 1 of 9). For EGDSWRYYGAN | GKNNRPS | SHRDSSGFQVF, the assay gave 980 nM (3 of 3 replicates; controls 2 of 9). The variant EGDSLRYYDAN | QKNHRPS | SSRDSSGFQVF gave 28 nM (3 of 3 replicates; controls 3 of 9). The variant EGDSLRYYNAN | GKNNRTF | SSRDSSGFQVF gave 160 nM (3 of 3 replicates; controls 4 of 9). The variant EGDSLRYYQAN | GKNNRPS | SSRDASGFQVF showed 11 nM (3 of 3 replicates; controls 6 of 9).

The variant EGDSLRYYFAN | GKNNRAS | SSRDSSDFQVF gave 470 nM (3 of 3 replicates; controls 3 of 9). The variant EGDSLRYYWAN | GKNNRPS | SSRHSSHFQVF gave 810 nM (3 of 3 replicates; controls 0 of 9). The variant EGDSLRYYIAN | GQNNRPS | SSRDSSGFQNF showed 1.4 µM (3 of 3 replicates; controls 1 of 9). The variant EGDSLRYGGAN | GKNNRPS | SSRDRSGFQVF showed 14 nM (3 of 3 replicates; controls 3 of 9). With EKDSLRYYVAN | GKNNRPS | SSRDSSGFQVF the result was 270 nM (1 of 3 replicates; controls 1 of 9). The variant EGDSLRYYAAN | GPNNRPS | SSRDSSGFQVR gave 150 nM (3 of 3 replicates; controls 4 of 9).

With EGYSLRTYGAN | GKNNRPS | SSRDSSGFQVF the result was 22 nM (3 of 3 replicates; controls 1 of 9). With EGDSLRYYEAN | GSNNRPS | SSRDESGFQVF the result was 9.9 nM (3 of 3 replicates; controls 5 of 9). For EGDSLRYYMAN | GKANRPS | VSRDSSGFQVF, the assay gave 1.2 µM (3 of 3 replicates; controls 1 of 9). The variant EGTSLRYYDAN | RKNNRPS | SSRDSSGFQVF gave 560 nM (3 of 3 replicates; controls 3 of 9). For EGDSLRYYEAN | GCNNRPS | TSRDSSGFQVF, the assay gave 280 nM (3 of 3 replicates; controls 5 of 9). The variant EGDCLRYEAAN | GKNNRPS | SSRDSSGFQVF gave 190 nM (3 of 3 replicates; controls 0 of 9).

For EGDSLRYYLAN | GKNNRPS | SSTDSSGMQVF, the assay gave 730 nM (3 of 3 replicates; controls 5 of 9). With EGDSLRYYAAN | GKNNRPS | QSRDFSGFQVF the result was 2.3 µM (2 of 3 replicates; controls 1 of 9). The variant EGDSLRYYVAN | GKNNRPS | SSRDSSGFFCF gave 1.1 µM (3 of 3 replicates; controls 4 of 9). For EGDSLRYYWAN | GKNNRPS | SLRDSNGFQVF, the assay gave 13 µM (1 of 3 replicates; controls 1 of 9). With EGDSVRYYFAN | GKNNRPS | SSRDSSGFQVP the result was 1.6 µM (3 of 3 replicates; controls 8 of 9). The variant EGDHLRYYCAN | GKNNRIS | SSRDSSGFQVF gave 590 nM (3 of 3 replicates; controls 5 of 9).

With EGDSLRYYHAN | GKNFRPS | SSRDSAGFQVF the result was 86 nM (3 of 3 replicates; controls 1 of 9). The variant EGDSLRYYEAN | GKNNRPW | SSRDSSGAQVF showed 30 nM (3 of 3 replicates; controls 5 of 9). The variant ECDSLRYYIVN | GKNNRPS | SSRDSSGFQVF showed no signal (0 of 3 replicates; controls 3 of 9). The variant EGDSLRYAQAN | GKNNRPS | SSRDSSGFQVF showed 3.9 nM (3 of 3 replicates; controls 3 of 9). The variant EGDSLRYYLAN | GKNPRPS | SSRDSSGFQVK gave 260 µM (1 of 3 replicates; controls 2 of 9). The variant EGDSIRYYTAN | GKNPRPS | SSRDSSGFQVF showed 17 µM (2 of 3 replicates; controls 6 of 9).

For EGDSLVYYMAN | GKNNRPS | SSRDSSGMQVF, the assay gave 1.1 µM (3 of 3 replicates; controls 4 of 9). The variant EGDYLRYYEAN | GKNNRPS | SSRVSSGFQVF showed 1.0 µM (1 of 3 replicates; controls 1 of 9). With EGDSLRYRSAN | GKNNRPS | SSRDSSGFQMF the result was 2.8 µM (3 of 3 replicates; controls 2 of 9). The variant EGDSLRYYQPN | GKNYRPS | SSRDSSGFQVF gave 17 nM (3 of 3 replicates; controls 3 of 9). For EGDSLRYYTAN | GNDNRPS | SSRDSSGFQVF, the assay gave 99 nM (3 of 3 replicates; controls 2 of 9). The variant EGDQERYYMAN | GKNNRPS | SSRDSSGFQVF gave no signal (0 of 3 replicates; controls 3 of 9).

With EHDSLRYYWAG | GKNNRPS | SSRDSSGFQVF the result was no signal (0 of 3 replicates; controls 2 of 9). The variant EGESLRYYQAQ | GKNNRPS | SSRDSSGFQVF showed 51 nM (3 of 3 replicates; controls 2 of 9). The variant EGDSLRYYSAN | GKNNRPS | SSQDSSGFLVF showed 72 nM (3 of 3 replicates; controls 4 of 9). For EGDSLRYYRAN | GKNNRPG | SSRDSSGDQVF, the assay gave 2.1 µM (3 of 3 replicates; controls 3 of 9). For EGDSLRYYQAN | GKNNRPS | FSPDSSGFQVF, the assay gave 110 nM (3 of 3 replicates; controls 4 of 9). With EGDSLRYYTAN | GKNNRPS | SSRDDSGFYVF the result was 700 nM (3 of 3 replicates; controls 0 of 9).

The variant EGDYLRYYDAN | GKNNRPS | SSRDSSQFQVF showed 790 nM (3 of 3 replicates; controls 1 of 9). With EGDSLRYYDAN | YKNNRPS | SSRDSSGFQVQ the result was 14 µM (3 of 3 replicates; controls 7 of 9). With EGDINRYYAAN | GKNNRPS | SSRDSSGFQVF the result was 440 nM (3 of 3 replicates; controls 3 of 9). The variant EGDSKRYYKAN | GKNNRPH | SSRDSSGFQVF gave no signal (0 of 3 replicates; controls 1 of 9). For EGDSLRYYGAN | GENNRPS | SSRDSCGFQVF, the assay gave 180 nM (3 of 3 replicates; controls 2 of 9). The variant ELDSLRYYAAN | GKNNRPS | SSRDSSGFQVK gave 340 nM (3 of 3 replicates; controls 2 of 9).

For EGDSLRYYQKN | GKNNRPS | SSRHSSGFQVF, the assay gave 1.8 µM (3 of 3 replicates; controls 6 of 9). For EGDSVRYYAAN | GKNNRPC | SSRDSSGFQVF, the assay gave 400 nM (3 of 3 replicates; controls 0 of 9). For EGDSLRLYCAN | GKNNRPS | SSGDSSGFQVF, the assay gave 18 µM (2 of 3 replicates; controls 3 of 9).

The 8 strongest on average among those seen in every replicate, once more:

The variant EGDSLRYAQAN | GKNNRPS | SSRDSSGFQVF gave 3.9 nM (3 of 3 replicates; controls 3 of 9).
The variant EGDSLRYYEAN | GSNNRPS | SSRDESGFQVF gave 9.9 nM (3 of 3 replicates; controls 5 of 9).
The variant EGDSLRYYQAN | GKNNRPS | SSRDASGFQVF gave 11 nM (3 of 3 replicates; controls 6 of 9).
The variant EGDSLRYGGAN | GKNNRPS | SSRDRSGFQVF gave 14 nM (3 of 3 replicates; controls 3 of 9).
The variant EGDSLRYYQPN | GKNYRPS | SSRDSSGFQVF gave 17 nM (3 of 3 replicates; controls 3 of 9).
The variant EGYSLRTYGAN | GKNNRPS | SSRDSSGFQVF gave 22 nM (3 of 3 replicates; controls 1 of 9).
The variant EGDSLRYYDAN | QKNHRPS | SSRDSSGFQVF gave 28 nM (3 of 3 replicates; controls 3 of 9).
The variant EGDSLRYYEAN | GKNNRPW | SSRDSSGAQVF gave 30 nM (3 of 3 replicates; controls 5 of 9).